Literature values in patent publication US11207276B2, “Multiparticulate L-menthol formulations and related methods” (Société des Produits Nestlé S.A., priority 2011, dated 2021).

Conditions: L-menthol from delayed release single-unit dosage forms

In the case of CC(C)[C@@H]1CC[C@@H](C)C[C@H]1O [L-menthol], the “systemic exposure of L-menthol limited to” value is given as “approximately 4 hours”.
